Data published in paper PMC6539809, “Development of Oxygen-Bridged Pyrazole-Based Structures as Cannabinoid Receptor 1 Ligands” (Molecules, 2019).

By UniProt entry, the sequences of proteins in these tests, tags left out.
UniProt P47746, whole entry: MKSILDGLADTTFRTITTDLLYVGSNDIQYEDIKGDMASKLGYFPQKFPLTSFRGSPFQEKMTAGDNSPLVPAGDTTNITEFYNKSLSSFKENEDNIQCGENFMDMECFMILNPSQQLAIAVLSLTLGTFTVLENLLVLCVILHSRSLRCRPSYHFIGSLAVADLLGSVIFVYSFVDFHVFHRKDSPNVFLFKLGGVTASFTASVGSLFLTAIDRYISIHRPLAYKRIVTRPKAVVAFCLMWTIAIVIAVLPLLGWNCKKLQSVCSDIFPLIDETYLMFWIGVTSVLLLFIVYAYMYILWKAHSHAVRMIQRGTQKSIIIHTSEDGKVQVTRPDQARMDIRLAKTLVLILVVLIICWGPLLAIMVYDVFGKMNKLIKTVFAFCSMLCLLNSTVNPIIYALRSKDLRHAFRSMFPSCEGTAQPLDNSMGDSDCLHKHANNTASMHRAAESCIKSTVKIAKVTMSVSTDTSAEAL

Molecular target: T1, CB1Rs of mouse vas deferens (Mus musculus, UniProt P47746)
T1 construct: naturally expressed prejunctional neuronal CB1Rs; from tissue; host or cells: isolated vas deferens of male albino CD1 mice
Experiment: Isolated organ assay: electrically evoked contractions of mouse vas deferens
Conditions: cumulative concentration-response curve

In the case of `Cc1c(C(=O)c2cccc3ccccc23)c2cccc3c2n1[C@H](CN1CCOCC1)CO3` [WIN 55,212-2, reference compound], the “Maximum inhibition of the amplitude of electrically-evoked contractions” value is reported as “approximately 100%”.
